From US9266814B2, “Use of nitrooxy organic molecules in feed for reducing methane emission in ruminants, and/or to improve ruminant performance” (DSM IP ASSETS B.V., priority 2010, dated 2016)
This is a selection: effects in other tests are not listed, and their absence says nothing.

System: methanogenesis in rumen liquor
Assay: In vitro test for methane production (modified Hohenheim Forage value Test)
Format: cell-based
Settings: reduction in methane vs control, 8 hours at 39° C., average of two experiments

SMILES | effect on methanogenesis (%) (0.005% DM) | effect on methanogenesis (%) (0.01% DM) | effect on methanogenesis (%) (0.05% DM) | effect on methanogenesis (%) (0.1% DM)
O=[N+]([O-])OCCCCO[N+](=O)[O-] | 16 | 92 | 100 | 100
O=[N+]([O-])OCCCO[N+](=O)[O-] | 29 | 98 | 100 | 99
O=[N+]([O-])OCCCCCO[N+](=O)[O-] | – | – | 100 | –
O=[N+]([O-])OCCOCCO[N+](=O)[O-] | 3 | 64 | 99 | 100
